To fix the notation:
B1: hsa-mir-576 (structured_RNA)
RNA: GGGAAGGUAAACCCAGUCGUGAUCCCGUGGUGUACGAAGUUUCAGCUCUUUGGUAAUAAGGUUUGGCAAAGAGCUGAAGCUUCGUGCAC
B2: hsa-mir-549a (structured_RNA)
RNA: GGGAAGCUAAUCUCUGUCGCAGCCGCUAGGUGUACGAAGUUUCAGCGUCACUGUCUCAAAUCAGUGACGCUGAAGCUUCGUGCAC
B3: hsa-mir-625 (structured_RNA)
RNA: GGGAACACUGCAGCCGAAUCGAACAGACGGUGUACGAAGUUUCAGCAGUCCUGUAAUUAGAUCUCAGGACUGCUGAAGCUUCGUGCAC
B4: hsa-mir-3658 (structured_RNA)
RNA: GGGAAGGUUCGCCUGCUUGGUAGCUGAUGGUGUACGAAGUUUCAGCAGAUGAAAUGCCUUUGAUUUGCUGAAGCUUCGUGCAC
B5: hsa-mir-6863 (structured_RNA)
RNA: GGGACAUUAGGAAGGAACCGCUUGAAAUGGUGUACGAAGUUUCAGCUUAAUGAGGCCAUAGAGCUGAAGCUUCGUGCAC
B6: hsa-mir-548ae-2 (structured_RNA)
RNA: GGGAGCAACGGCAAGACCCACGUACUAGGGUGUACGAAGUUUCAGCUUUGUCAUUUAAAAGUAAUGGCAAAGCUGAAGCUUCGUGCAC
B7: hsa-mir-875 (structured_RNA)
RNA: GGGAACAGGGAACCUUAUACUAAGUUUGGGUGUACGAAGUUUCAGCCAGGUGUUCUUAAAAUCACCUGGCUGAAGCUUCGUGCAC
B8: hsa-mir-4777 (structured_RNA)
RNA: GGGAACAGUCAGCGGACUCGGUAACCAAGGUGUACGAAGUUUCAGCAGAUAUAUAUAUACCUCAUAUGUAUAUGGUAUACGCUGAAGCUUCGUGCAC
B9: hsa-mir-1290 (structured_RNA)
RNA: GGGAACCUGUAGCUGCUACGGAUAGCGGGGUGUACGAAGUUUCAGCUUCAGAUUUUGGAACAUUUCGGAUUUUGGAGCUGAAGCUUCGUGCAC
B10: hsa-mir-133a-1 (structured_RNA)
RNA: GGGAAUGUCACGGAGGGAGCUCAACUACGGUGUACGAAGUUUCAGCCAAAUCGCCUCUUCAAUGGAUUUGGCUGAAGCUUCGUGCAC
B11: hsa-mir-320b-1 (structured_RNA)
RNA: GGGAACAGGACUGAACCUUCAAUACAGGGGUGUACGAAGUUUCAGCAAUCCCUCUCUUUCUAGUUCUUCCUAGAGUGAGGAAAAGCUGAAGCUUCGUGCAC
B12: hsa-mir-548k (structured_RNA)
RNA: GGGAAUGACGUUGUGGUUCAGCUGCCACGGUGUACGAAGUUUCAGCUGCUUUACUUUUAAUGGCAGCUGAAGCUUCGUGCAC
B13: hsa-mir-3115 (structured_RNA)
RNA: GGGAACCGCAAUCGAGCAAAGCUAACUGGGUGUACGAAGUUUCAGCUGGUGGUGAAUUCAUGAGUCGCCAGCUGAAGCUUCGUGCAC
B14: NEAT1_ParasoR_ID18 (structured_RNA)
RNA: GGGAAAAUCAUGCGUGAUCCACCUAUGCGGUGUACGAAGUUUCAGCUGGAACUGGGGUAAAACUGCGUAGUGGCUGCAGCUGCCUGUCCAGCUGAAGCUUCGUGCAC
B15: hsa-mir-3936 (structured_RNA)
RNA: GGGAAAUUCACACGCUGACGGCGAUUUAGGUGUACGAAGUUUCAGCAAAUCCGUGUUUGGACGCUUCUGGUAGCUGAAGCUUCGUGCAC
B16: hsa-mir-3689a (structured_RNA)
RNA: GGGACUUUUGAGCAGGGAGUACGUAUAAGGUGUACGAAGUUUCAGCCUGGGAGGUGUGAUCCUGUGCUUCCUGGGCUGAAGCUUCGUGCAC
B17: hsa-mir-548ay (structured_RNA)
RNA: GGGACUAUCUGCAGAAGGGAUCUAGUUGGGUGUACGAAGUUUCAGCUUUUGCAUUUAAAGUAAUGGCCAAAGCUGAAGCUUCGUGCAC
B18: hsa-mir-4289 (structured_RNA)
RNA: GGGACCAGACUGCGCGUGUAAAUCGAAUGGUGUACGAAGUUUCAGCAUCAGGCAGUUUCCUGGCUGAAGCUUCGUGCAC
B19: hsa-mir-876 (structured_RNA)
RNA: GGGAACUGAGUGGCUAUGUCGAACUCGAGGUGUACGAAGUUUCAGCACCAUAUCUAAGCUAAUGUGGUGGUGCUGAAGCUUCGUGCAC
B20: hsa-mir-7846 (structured_RNA)
RNA: GGGAAAACUCUAGAGGUCGAAACUCCGAGGUGUACGAAGUUUCAGCGCUGGGGCGCGGGCUUUCGCUUUCAGUCGAGGGCUAGCGAGCGCAGCGCUGAAGCUUCGUGCAC
B21: hsa-mir-1255b-1 (structured_RNA)
RNA: GGGACGCUCUCGCCGAGGUAUAGAGUUUGGUGUACGAAGUUUCAGCGGUUUCUUAAAAUGGAAUCUGCUGAAGCUUCGUGCAC
B22: hsa-mir-548at (structured_RNA)
RNA: GGGACGUGUCCAAUAAUAUCGCCUCGCAGGUGUACGAAGUUUCAGCUUUGGCUGCCAAAAGAAAUGGCCAAAGCUGAAGCUUCGUGCAC
B23: hsa-mir-628 (structured_RNA)
RNA: GGGAAAAGAGGGCACCAGAUGUAUUGUCGGUGUACGAAGUUUCAGCUAGAGGGUAAAAUUAAUAACCUUCUAGCUGAAGCUUCGUGCAC
B24: hsa-mir-4504 (structured_RNA)
RNA: GGGAAAUAAGCAAGGAGCCCGUAUGUUAGGUGUACGAAGUUUCAGCCAUUUGUGGCAUGGACCAUUUGUGGCUGAAGCUUCGUGCAC
B25: hsa-mir-4755 (structured_RNA)
RNA: GGGAGUACAGAGUGUAGCUAGCUCGCCCGGUGUACGAAGUUUCAGCGGCUUUGGCAUCUAUGAAAGCCGCUGAAGCUUCGUGCAC
B26: hsa-mir-6822 (structured_RNA)
RNA: GGGACAACAAGAGUGUAGCCCCAGAAACGGUGUACGAAGUUUCAGCGCUUCCGCUCUGCAGAGGCGCUGAAGCUUCGUGCAC

These results are taken from paper PMC7723054.

The other results are listed elsewhere or left out.

For one test, the target named is T1, LIN28A (human?, UniProt Q9H9Z2 1-209).
T1 sequence: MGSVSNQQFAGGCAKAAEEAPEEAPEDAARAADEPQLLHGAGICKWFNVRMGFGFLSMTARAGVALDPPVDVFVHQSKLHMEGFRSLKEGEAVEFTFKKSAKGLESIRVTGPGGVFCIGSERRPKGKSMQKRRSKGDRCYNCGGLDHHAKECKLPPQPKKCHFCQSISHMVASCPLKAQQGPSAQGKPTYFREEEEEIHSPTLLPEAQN
In words: FOREST: bead pull-down of RNA structure library v1, barcode microarray; U1A/LIN28A: 20 mM HEPES pH 7.5, 80 mM KCl, 20 mM NaCl, 10% glycerol, 2 mM DTT, 0.1 ug/uL BSA, 4 C; BG4/CIRBP/DHX36: 10 mM Tris-HCl pH 7.5, 100 mM KCl (or LiCl),; high values mean tight binding.
B1 returned a binding signal of -0.523 z-score.

B2 returned a binding signal of -0.501 z-score.

B3 came in with a binding signal of -0.519 z-score.

B4 yielded a binding signal of -0.529 z-score.

Regarding B5, the binding signal was -0.532 z-score.

Molecule B6 showed a binding signal of -0.521 z-score.

B7 registered a binding signal of -0.54 z-score.

On to B8, for which the binding signal was -0.536 z-score.

Regarding B9, the binding signal is -0.537 z-score.

The molecule B10 yielded a binding signal of -0.515 z-score.

B11 registered a binding signal of -0.54 z-score.

B12 returned a binding signal of -0.519 z-score.

With B13, the binding signal is -0.503 z-score.

With B14, the binding signal was -0.518 z-score.

With B15, the binding signal is -0.543 z-score.

With B16, the binding signal was -0.51 z-score.

B17 showed a binding signal of -0.52 z-score.

As for B18, the binding signal is -0.542 z-score.

Molecule B19 returned a binding signal of -0.512 z-score.

B20 gave a binding signal of -0.517 z-score.

Turning to B21, the binding signal was -0.544 z-score.

B22: the binding signal was -0.515 z-score.

Molecule B23 yielded a binding signal of -0.504 z-score.

B24: the binding signal was -0.519 z-score.

With B25, the binding signal was -0.517 z-score.

As to B26, the binding signal is -0.547 z-score.

A further test addresses T2, CIRBP (Homo sapiens, UniProt Q14011 1-172).
T2 sequence: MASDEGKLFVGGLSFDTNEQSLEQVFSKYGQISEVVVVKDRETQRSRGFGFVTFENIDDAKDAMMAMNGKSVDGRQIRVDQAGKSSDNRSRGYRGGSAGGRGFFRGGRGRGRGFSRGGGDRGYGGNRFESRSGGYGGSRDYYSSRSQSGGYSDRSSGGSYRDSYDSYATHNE
The description is as above.
B1: the binding signal was -1.17 z-score.

Consider B2, for which the binding signal worked out at 0.258 z-score.

Regarding B3, the binding signal stood at 1.3 z-score.

B4 gave a binding signal of -0.135 z-score.

For the molecule B5, the binding signal is -0.501 z-score.

As to B6, the binding signal was -0.342 z-score.

B7 gave a binding signal of -0.308 z-score.

With B8, the binding signal was 0.207 z-score.

B9: the binding signal is 0.529 z-score.

The molecule B10 returned a binding signal of 0.175 z-score.

In the case of B11, the binding signal was determined as 1.61 z-score.

For B12, the binding signal is -0.4 z-score.

Regarding B13, the binding signal amounted to 1.71 z-score.

Regarding B14, the binding signal was determined as 0.00105 z-score.

As for B15, the binding signal was 0.355 z-score.

The molecule B16 came in with a binding signal of 0.169 z-score.

B17 displayed a binding signal of 0.151 z-score.

With B18, the binding signal worked out at 0.0829 z-score.

B19: the binding signal is -1.51 z-score.

Molecule B20 had a binding signal of -0.299 z-score.

The molecule B21 had a binding signal of -0.0489 z-score.

B22 yielded a binding signal of -0.139 z-score.

With B23, the binding signal came to 0.577 z-score.

B24: the binding signal was found to be 1.02 z-score.

B25 yielded a binding signal of -1.87 z-score.

Take B26: the binding signal was -0.959 z-score.

The target in a further test is T3, DHX36 (Homo sapiens, UniProt Q9H2U1 1-1008).
T3 sequence: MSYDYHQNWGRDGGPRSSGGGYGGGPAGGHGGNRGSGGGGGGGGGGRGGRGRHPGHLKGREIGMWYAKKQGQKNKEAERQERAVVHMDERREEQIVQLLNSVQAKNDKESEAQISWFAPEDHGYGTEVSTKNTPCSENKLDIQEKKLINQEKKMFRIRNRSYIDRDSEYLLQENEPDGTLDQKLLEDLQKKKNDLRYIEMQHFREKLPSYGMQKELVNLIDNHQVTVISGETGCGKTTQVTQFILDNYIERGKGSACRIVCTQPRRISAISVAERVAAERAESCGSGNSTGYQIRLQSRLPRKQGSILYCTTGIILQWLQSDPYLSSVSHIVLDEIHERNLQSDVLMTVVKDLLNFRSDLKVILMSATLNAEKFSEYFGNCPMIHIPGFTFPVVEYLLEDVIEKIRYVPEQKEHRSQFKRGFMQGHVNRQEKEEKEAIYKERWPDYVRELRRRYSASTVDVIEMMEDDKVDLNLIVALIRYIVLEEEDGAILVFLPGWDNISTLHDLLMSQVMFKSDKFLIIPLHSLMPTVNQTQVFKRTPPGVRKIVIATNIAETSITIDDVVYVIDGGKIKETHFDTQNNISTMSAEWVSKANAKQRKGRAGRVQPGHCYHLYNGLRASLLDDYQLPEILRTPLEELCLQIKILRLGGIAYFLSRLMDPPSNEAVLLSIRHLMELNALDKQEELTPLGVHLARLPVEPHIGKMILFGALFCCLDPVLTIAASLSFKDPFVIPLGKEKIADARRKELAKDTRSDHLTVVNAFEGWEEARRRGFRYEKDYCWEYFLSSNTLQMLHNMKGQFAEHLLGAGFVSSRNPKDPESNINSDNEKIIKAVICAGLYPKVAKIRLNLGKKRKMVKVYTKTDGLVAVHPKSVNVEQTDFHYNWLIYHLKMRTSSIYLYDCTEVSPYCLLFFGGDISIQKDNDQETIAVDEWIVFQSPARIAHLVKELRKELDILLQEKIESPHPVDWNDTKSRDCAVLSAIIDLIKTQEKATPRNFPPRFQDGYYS
The test is described as above.
B1 returned a binding signal of -0.177 z-score.

Turning to B2, the binding signal is -0.559 z-score.

Take B3: the binding signal is -0.722 z-score.

For B4, the binding signal is -0.549 z-score.

B5 yielded a binding signal of 0.81 z-score.

B6: the binding signal stood at 0.0348 z-score.

In the case of B7, the binding signal was -0.814 z-score.

B8 displayed a binding signal of -0.471 z-score.

In the case of B9, the binding signal is -0.736 z-score.

B10 showed a binding signal of 0.461 z-score.

B11 gave a binding signal of 0.946 z-score.

For the molecule B12, the binding signal is -0.915 z-score.

Molecule B13 yielded a binding signal of 0.993 z-score.

The molecule B14 gave a binding signal of -0.847 z-score.

In turn, B15 gave a binding signal of -0.714 z-score.

In turn, B16 registered a binding signal of -0.277 z-score.

For B17, the binding signal stood at 0.548 z-score.

B18 had a binding signal of -1.2 z-score.

Regarding B19, the binding signal was -1.37 z-score.

B20 displayed a binding signal of 0.44 z-score.

B21: the binding signal was -0.151 z-score.

Turning to B22, the binding signal is -1.08 z-score.

In turn, B23 came in with a binding signal of -0.014 z-score.

As for B24, the binding signal was -0.0311 z-score.

Molecule B25 returned a binding signal of -0.725 z-score.

In turn, B26 gave a binding signal of 0.147 z-score.
